One may read the IC50 as the concentration at which inhibition is half-maximal.

Amino acid sequences for entries named in this document (tags omitted).
UniProt Q92918, whole entry: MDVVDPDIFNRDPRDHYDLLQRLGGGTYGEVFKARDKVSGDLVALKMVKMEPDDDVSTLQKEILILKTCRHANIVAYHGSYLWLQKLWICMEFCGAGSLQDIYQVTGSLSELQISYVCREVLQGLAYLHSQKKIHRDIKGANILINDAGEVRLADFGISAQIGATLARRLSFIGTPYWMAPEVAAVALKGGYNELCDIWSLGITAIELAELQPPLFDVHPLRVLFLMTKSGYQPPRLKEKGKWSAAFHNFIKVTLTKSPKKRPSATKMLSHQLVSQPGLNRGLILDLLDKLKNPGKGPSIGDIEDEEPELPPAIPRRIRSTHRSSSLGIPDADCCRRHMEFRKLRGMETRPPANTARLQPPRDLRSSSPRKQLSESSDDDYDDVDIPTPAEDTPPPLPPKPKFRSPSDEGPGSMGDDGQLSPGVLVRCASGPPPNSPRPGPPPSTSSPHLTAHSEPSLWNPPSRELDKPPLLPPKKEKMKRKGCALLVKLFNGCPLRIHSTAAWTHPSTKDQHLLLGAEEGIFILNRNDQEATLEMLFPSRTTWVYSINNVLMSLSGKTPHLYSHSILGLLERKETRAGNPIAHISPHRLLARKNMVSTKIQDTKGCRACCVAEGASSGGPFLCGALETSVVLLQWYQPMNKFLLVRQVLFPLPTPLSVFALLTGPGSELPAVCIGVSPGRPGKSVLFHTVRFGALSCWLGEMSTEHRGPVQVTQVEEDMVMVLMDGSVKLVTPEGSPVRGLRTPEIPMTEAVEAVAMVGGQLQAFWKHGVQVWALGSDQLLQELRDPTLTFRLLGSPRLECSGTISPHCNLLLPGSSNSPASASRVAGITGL

We go through two compounds from patent US11021481B2, “Substituted isoindolin-1-ones and 2,3-dihydro-1h-pyrrolo[3,4-c]pyridin-1-ones as HPK1 antagonists” (Nimbus Saturn, Inc., priority 2019, dated 2021).

The assay deals with HPK1 (Homo sapiens (Human), UniProt Q92918). Briefly: HPK1 biochemical enzyme assay (microfluidic mobility shift assay). Particulars: 1.5 nM HPK1, ATP 1 mM final, 30 min preincubation, 60 min at RT, Caliper EZ Reader; read-out: HPK1 1000UMATP caliper IC50. The method, then:
HPK1 biochemical enzyme assay: HPK1 enzyme inhibition was measured using a microfluidic mobility shift assay. […] Test compounds were titrated in ten point curves (top final assay concentration 3 μM), and preincubated with enzyme/substrate mix for 30 min prior to initiation of the reaction by addition of ATP (1 mM final concentration) and substrate (1 μM final concentration; Carna Biosciences) diluted in assay buffer supplemented by MgCl2 (final assay concentration of 5 mM). Following 60 min incubation at RT, the reaction was terminated by addition of 60 µl/well termination buffer (Carna Biosciences) and signal determination using aCaliper EZ Reader (Perkin Elmer, UK).
The compound numbers correspond to the compound numbers in Table 1.

Where only a bound is given, the exact number is not on record here.

For `CN(C)Cc1nc(Nc2ccc(-c3cnn4cc(F)ccc34)c3c2C(=O)NC3)ccc1[C@H]1CCOC1` [I-542, (R)-7-((6-((dimethylamino)-methyl)-5-(tetrahydrofuran-3-yl)pyridin-2-yl)amino)-4-(6-fluoropyrazolo [1,5-a]pyridin-3-yl)isoindolin-1-one], the IC50 is less than 100 nM.
`CN(C)Cc1nc(Nc2ccc(-c3cnn4cc(F)ccc34)c3c2C(=O)NC3)ccc1[C@@H]1CCOC1` [I-543, (S)-7-((6-((dimethylamino)-methyl)-5-(tetrahydrofuran-3-yl)pyridin-2-yl)amino)-4-(6-fluoropyrazolo [1,5-a]pyridin-3-yl)isoindolin-1-one]: the IC50 is less than 100 nM.
